From article PMC5039417, “Aberrant Glycosylation of Anchor-Optimized MUC1 Peptides Can Enhance Antigen Binding Affinity and Reverse Tolerance to Cytotoxic T Lymphocytes” (Biomolecules, 2016) come the findings set out here.

The test deals with HLA-A*0201 molecules (Homo sapiens, UniProt P04439, D140Y/D185E/D98H/E176V/E277Q/G131W/G231S/I119V/I121R/I166T/I218V/L300P/L318F/N151K/N90K/P208A/P217A/Q86G/Q94H/R138H/R169H/T345S). In words: Competitive peptide inhibition assay (F1-peptide displacement on T2 cells). The note with it: scored from IC50 in the competition assay on T2 cells.

Turning to ALGSTAPPV [P9, reference compound], the “Affinity class of binder to HLA-A*0201” value was “high (“high affinity binders” with IC50 of <5 μg/mL)”.
